The source of these data is EP1731520A1.

The chains behind the UniProt entries cited, without tags or fusion partners.
UniProt P29275, whole entry: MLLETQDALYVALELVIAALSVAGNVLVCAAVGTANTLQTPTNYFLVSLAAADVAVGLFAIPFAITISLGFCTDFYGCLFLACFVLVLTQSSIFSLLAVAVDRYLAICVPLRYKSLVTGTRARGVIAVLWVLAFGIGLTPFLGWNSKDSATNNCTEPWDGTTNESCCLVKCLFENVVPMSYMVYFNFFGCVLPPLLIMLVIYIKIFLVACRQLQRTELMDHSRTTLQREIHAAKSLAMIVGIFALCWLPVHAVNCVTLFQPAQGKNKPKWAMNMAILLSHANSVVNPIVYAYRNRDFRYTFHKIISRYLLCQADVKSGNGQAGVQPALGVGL

The target of the assay is human A2b receptor subtype (Homo sapiens, UniProt P29275). Put plainly: Adenosine 2b receptor subtype competition radioligand binding, [3H] DPCPX, HEK293 membranes. As to conditions: read-out: Binding Ki (nM) A2b; Table 13.

As usually defined, the Ki is a dissociation constant, usually derived from enzyme kinetics or from competition with a known ligand. For the compound `Cc1cc2c(N[C@H]3CC[C@H](O)CC3)nc(-c3ccccc3)nc2[nH]1` (relative stereo), the Ki was 168 nM.
